# Data reported in patent publication US12421222B2 (AUGUSTINE THERAPEUTICS, priority 2021, dated 2025).
# Test system: acetylated tubulin (Lys40) in HeLa cells
# Assay: Acetylated α-tubulin measurement in vitro (immunocytochemistry)
# Type: cell-based
# Details: Homo sapiens, 6 hours incubation, acetylated tubulin (Lys40) by immunocytochemistry, read-out: IC50 (Tubulin deacetylation)
# Description: HeLa cells were cultured in UltraCulture serum-free medium (Lonza) supplemented with 2 mM glutamine (Lonza). Assays were performed at 96-well or 384-well format, differences in assay protocols are detailed in Table 6. Cells per well were plated and incubated overnight at 37° C. overnight in a humidified atmosphere containing 5% CO2. Cell density and seeding volumes are detailed in Table 6. Compounds (dissolved in 100% DMSO) or DMSO (vehicle) were added manually by diluting them in culture medium at 10× final assay concentration and adding 10 μL to cells (96-well protocol). Alternatively, 50 nL compound was added directly to the cell culture using the Echo650 (Labcyte) (384-well protocol). In this assay, the final assay concentration of DMSO is 0.1%-0.4%. Trichostatin A (TSA) was used as a positive control. Cells were incubated with compounds at 37° C. in a humidified atmosphere containing 5% CO2 for 6 hours. Levels of acetylated tubulin (Lys40) were assessed by immunocytochemistry using target-specific antibodies. […] Cytoplasmic (defined by total α-tubulin staining) intensities per well were used for α-tubulin (acetylated and total) quantification. Intensities were measured per cell and then averaged per well. […] EC50 values were calculated using the log(inhibitor) vs. response—Variable slope (four parameters) nonlinear regression in GraphPad Prism software.
row,SMILES,IC50
1,"Cc1nc(SCC(=O)c2ccc(CNC(=O)CO)s2)c2cc(N3CC4CCC3CO4)ccc2n1 (centres unmarked) [Example 147, N-((5-(2-((6-(2-oxa-5-azabicyclo[2.2.2]octan-5-yl)-2-methylquinazolin-4-yl)thio)acetyl)thiophen-2-yl)methyl)-2-hydroxyacetamide]",≤ 100 nM
2,"COc1cc2c(SCC(=O)c3ccc(CNC(=O)CO)s3)nc(C)nc2cc1F [Example 75, N-((5-(2-((7-fluoro-6-methoxy-2-methylquinazolin-4-yl)thio)acetyl)thiophen-2-yl)methyl)-2-hydroxyacetamide]",100 to 500 nM
